Experimental data taken from PubChem BioAssay AID2540 (Sanford-Burnham Center for Chemical Genomics, 2010).
The entries are a selection whose mix differs from that of the whole data set. The source made the active and inactive calls. Cut-off read from the data, not from the text of the source: active = inhibition above about 50%; inactive = the rest.

Protein sequences, listed by entry. Tags and fused reporters are not part of them.
UniProt Q96LD8, whole entry: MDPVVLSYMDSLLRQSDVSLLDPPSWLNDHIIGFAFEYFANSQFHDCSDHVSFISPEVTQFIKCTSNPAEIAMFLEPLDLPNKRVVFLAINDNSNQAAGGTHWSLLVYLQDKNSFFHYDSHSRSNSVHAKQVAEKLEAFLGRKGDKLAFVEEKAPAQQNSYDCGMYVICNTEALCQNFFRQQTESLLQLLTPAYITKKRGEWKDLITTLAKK

These compounds were tested against Sentrin-specific protease 8 (Homo sapiens) (UniProt Q96LD8) (assay: blockers of human SENP8 peptidase activity – biochemical, luminescence, primary screen (AID 2540)). Settings: purified SENP8, Z-RLRGG-aminoluciferin cleavage, at 10 µM, stronger effect = higher value.

**Q.** For `COc1ccc(CN(CCCl)CCCl)cc1Cl`, which inhibition is on record?
**A.** inactive: -2.36%

**Q.** Which inhibition does the source give for `CN(C)c1cccc(C(=O)NCC2(N3CCCCC3)CCCCC2)c1` here?
**A.** inactive: -3.23%

**Q.** With `CC(C)c1ccc(NC2CCN(C(=O)OC(C)(C)C)CC2)cc1` as the compound, how does the inhibition read?
**A.** inactive: 2.73%

**Q.** Which inhibition does the source give for `COc1cc(OC)c(C(=O)NCC2(N(C)C)CCCCC2)cc1OC` here?
**A.** inactive: -7.38%

**Q.** `O=C(NCC1(N2CCOCC2)CCCCC1)c1cc(F)c(F)cc1Cl` was tested. Which inhibition did it give?
**A.** inactive: -10.9%

**Q.** With `CN1CCC(Nc2cccc(F)c2)CC1` as the compound, how does the inhibition read?
**A.** inactive: -1.22%

**Q.** With `O=C(NCC1(N2CCCCC2)CCCCC1)c1cncc(Br)c1` as the compound, how does the inhibition read?
**A.** inactive: 2.29%

**Q.** `O=C(NCC1(N2CCCCC2)CCCCC1)c1ccc(OC(F)F)cc1` was tested. Which inhibition did it give?
**A.** inactive: -9.78%

**Q.** `CSc1ccc(C(=O)NCC2(N3CCOCC3)CCCCC2)cc1` was tested. Which inhibition did it give?
**A.** inactive: -14.6%

**Q.** With `O=C(NCC1(N2CCCCC2)CCCCC1)c1cccc([N+](=O)[O-])c1` as the compound, how does the inhibition read?
**A.** inactive: -1.95%

**Q.** Which inhibition does the source give for `CCN1CCC(Nc2ccc(Cl)cc2)CC1` here?
**A.** inactive: 1.53%

**Q.** With `N#CC1(Nc2ccccc2)CCN(CCc2ccccc2)CC1` as the compound, how does the inhibition read?
**A.** inactive: -3.61%

**Q.** `O=C(NCC1(N2CCCCC2)CCCCC1)c1cccc(C(F)(F)F)c1` was tested. Which inhibition did it give?
**A.** inactive: 0.051%

**Q.** `COc1ccc(NC2CCN(C(=O)OC(C)(C)C)CC2)cc1` was tested. Which inhibition did it give?
**A.** inactive: 1.78%

**Q.** With `CC(C)c1ccc(C(=O)NCC2(N3CCOCC3)CCCCC2)cc1` as the compound, how does the inhibition read?
**A.** inactive: 6.98%

**Q.** Which inhibition does the source give for `CN1CCN(CCOC(=O)C(O)(c2ccccc2)c2ccccc2)CC1` here?
**A.** inactive: -3.51%

**Q.** For `O=C(NCC1(N2CCOCC2)CCCCC1)c1cc(=O)[nH]c2ccccc12`, which inhibition is on record?
**A.** inactive: -8.94%

**Q.** Which inhibition does the source give for `COc1cc(C(=O)NCC2(N3CCCCC3)CCCCC2)ccc1OC(F)F` here?
**A.** inactive: 5.24%

**Q.** For `CCOc1ccc(C)cc1CN(CCCl)CCCl`, which inhibition is on record?
**A.** inactive: -7.25%

**Q.** With `CCCCOc1ccc(C(=O)NCC2(N3CCOCC3)CCCCC2)cc1` as the compound, how does the inhibition read?
**A.** inactive: 2.44%

**Q.** Which inhibition does the source give for `O=C(NCC1(N2CCCCC2)CCCCC1)c1ccc(F)cc1` here?
**A.** inactive: -8.33%

**Q.** How did the inhibition turn out when `CCOC(=O)N1CCC(Nc2ccc(F)cc2)CC1` was run?
**A.** inactive: 6.65%

**Q.** Which inhibition does the source give for `COc1ccc(NC2CCN(CCc3ccccc3)CC2)c(OC)c1` here?
**A.** inactive: -9.97%

**Q.** Which inhibition does the source give for `CCOC(=O)N1CCC(Nc2cccc(C)c2)CC1` here?
**A.** inactive: 10.1%

**Q.** `Cc1ccc(OCC(C)C)c(CN(CCCl)CCCl)c1` was tested. Which inhibition did it give?
**A.** inactive: -1.09%

**Q.** `O=C(NCC1(N2CCCCC2)CCCCC1)c1ccc(=O)[nH]c1` was tested. Which inhibition did it give?
**A.** inactive: -0.686%

**Q.** How did the inhibition turn out when `O=C(NCC1(N2CCCCC2)CCCCC1)c1cccs1` was run?
**A.** inactive: 3.78%

**Q.** Which inhibition does the source give for `COc1ccc(C(=O)NCC2(N3CCCCC3)CCCCC2)cc1` here?
**A.** inactive: 0.71%

**Q.** With `COc1ccc(C(=O)NCC2(N3CCCCC3)CCCCC2)c(OC)c1OC` as the compound, how does the inhibition read?
**A.** inactive: 4.37%

**Q.** For `CC(C)(C)OC(=O)N1CCC(N(C(=O)c2ccccc2)c2ccc(F)cc2)CC1`, which inhibition is on record?
**A.** inactive: -0.944%

**Q.** With `CSc1ccccc1C(=O)NCC1(N2CCCCC2)CCCCC1` as the compound, how does the inhibition read?
**A.** inactive: 4.8%

**Q.** `O=C(NCC1(N2CCOCC2)CCCCC1)c1cc2ccccc2o1` was tested. Which inhibition did it give?
**A.** inactive: 8.34%

**Q.** `O=C(NCC1(N2CCCCC2)CCCCC1)c1ccc(Cl)nc1` was tested. Which inhibition did it give?
**A.** inactive: -2.59%

**Q.** With `Cc1cc(C)cc(N(C(=O)c2ccccc2)C2CCN(C(=O)OC(C)(C)C)CC2)c1` as the compound, how does the inhibition read?
**A.** inactive: -4.52%

**Q.** `CCOC(=O)N1CCC(Nc2ccc(OC)cc2)CC1` was tested. Which inhibition did it give?
**A.** inactive: -11.1%

**Q.** `N#CC1(Nc2ccccc2)CCN(Cc2ccccc2)CC1` was tested. Which inhibition did it give?
**A.** inactive: 5.56%

**Q.** How did the inhibition turn out when `O=C(NCC1(N2CCCCC2)CCCCC1)c1ccc(Cl)s1` was run?
**A.** inactive: -1.07%

**Q.** `O=C(OC1CN2CCC1CC2)C1c2ccccc2Oc2ccccc21` (configuration not stated) was tested. Which inhibition did it give?
**A.** inactive: -9.09%

**Q.** For `COc1ccc(Cl)cc1C(=O)NCC1(N2CCOCC2)CCCCC1`, which inhibition is on record?
**A.** inactive: -0.199%

**Q.** Which inhibition does the source give for `CCOc1ncccc1C(=O)NCC1(N2CCOCC2)CCCCC1` here?
**A.** inactive: -0.495%

**Q.** Which inhibition does the source give for `CN1CCC(Nc2ccc(F)c(Cl)c2)CC1` here?
**A.** inactive: -5.92%

**Q.** With `CCCOc1ccc(C(=O)NCC2(N(C)C)CCCCC2)cc1` as the compound, how does the inhibition read?
**A.** inactive: 2.21%

**Q.** For `CC(C)(C)OC(=O)N1CCC(Nc2ccccc2)CC1`, which inhibition is on record?
**A.** inactive: -3.8%

**Q.** With `O=C(O)C1(Nc2ccccc2)CCN(Cc2ccccc2)CC1` as the compound, how does the inhibition read?
**A.** inactive: -10.7%

**Q.** Which inhibition does the source give for `CCC(CO)(C(=O)OC1CN2CCC1CC2)c1ccccc1` (configuration not stated) here?
**A.** inactive: -1.36%

**Q.** With `COc1cccc(C(=O)N(c2cc(C)cc(C)c2)C2CCN(C(=O)OC(C)(C)C)CC2)c1` as the compound, how does the inhibition read?
**A.** inactive: -6.99%

**Q.** How did the inhibition turn out when `COc1cc(OC)cc(C(=O)NCC2(N3CCOCC3)CCCCC2)c1` was run?
**A.** inactive: -11.5%

**Q.** For `CCCOc1ccc(C)cc1CN(CCCl)CCCl`, which inhibition is on record?
**A.** inactive: -1.09%

**Q.** Which inhibition does the source give for `CN1CCC(Nc2ccc(Cl)cc2)CC1` here?
**A.** inactive: -2.73%

**Q.** `COc1cc(OC)cc(C(=O)NCC2(N3CCCCC3)CCCCC2)c1` was tested. Which inhibition did it give?
**A.** inactive: -0.95%

**Q.** How did the inhibition turn out when `Cc1ccc(C(=O)NCC2(N3CCCCC3)CCCCC2)o1` was run?
**A.** inactive: 9.81%

**Q.** Which inhibition does the source give for `Fc1ccccc1NC1CCN(Cc2ccccc2)CC1` here?
**A.** inactive: -12.9%

**Q.** How did the inhibition turn out when `CCN1CCC(Nc2cccc(F)c2)CC1` was run?
**A.** inactive: 0.261%

**Q.** How did the inhibition turn out when `O=C(NCC1(N2CCCCC2)CCCCC1)c1ccco1` was run?
**A.** inactive: -16.4%

**Q.** `CN(C)c1ccc(C(=O)NCC2(N3CCCCC3)CCCCC2)cc1` was tested. Which inhibition did it give?
**A.** inactive: 4.55%

**Q.** For `CC(C)(C)OC(=O)N1CCC(N(C(=O)c2ccccc2)c2ccc(Cl)cc2)CC1`, which inhibition is on record?
**A.** inactive: 1.85%

**Q.** For `N#Cc1ccc(C(=O)NCC2(N3CCCCC3)CCCCC2)cc1`, which inhibition is on record?
**A.** inactive: -1.22%

**Q.** With `c1ccc(CN2CCC(Nc3ccccc3)CC2)cc1` as the compound, how does the inhibition read?
**A.** inactive: -10.9%

**Q.** `CCCN1CCC(Nc2cc(OC)cc(OC)c2)CC1` was tested. Which inhibition did it give?
**A.** inactive: -4.31%

**Q.** For `CN(C)C1(CNC(=O)c2cccc(C#N)c2)CCCCC1`, which inhibition is on record?
**A.** inactive: -3.29%

**Q.** `O=C(NCC1(N2CCOCC2)CCCCC1)c1cc(Br)ccc1Cl` was tested. Which inhibition did it give?
**A.** inactive: -6.08%

**Q.** How did the inhibition turn out when `COc1cc(C(=O)NCC2(N3CCOCC3)CCCCC2)cc(OC)c1C` was run?
**A.** inactive: -1.14%

**Q.** `COc1ccc(C(=O)NCC2(N3CCOCC3)CCCCC2)cc1OC` was tested. Which inhibition did it give?
**A.** inactive: -3.95%

**Q.** For `N/C(=N\O)c1c(N)no[n+]1[O-]`, which inhibition is on record?
**A.** inactive: -8.3%

**Q.** `CCOC(=O)N1CCC(Nc2ccc(C)cc2)CC1` was tested. Which inhibition did it give?
**A.** inactive: -3.23%

**Q.** `CCc1cc(C(=O)NCC2(N3CCCCC3)CCCCC2)sc1C` was tested. Which inhibition did it give?
**A.** inactive: 6.81%

**Q.** Which inhibition does the source give for `O=C(OC1CN2CCC1CC2)C1c2ccccc2C=Cc2ccccc21` (configuration not stated) here?
**A.** inactive: -4.2%
